Target: hCA II (Homo sapiens, UniProt P00918)
Assay: stopped-flow CO2 hydrase assay, hCA II
Format: biochemical

Row | Structure (SMILES) | Ki (CO2 hydrase stopped-flow assay, 20 mM Hepes pH 7.5, 20 mM NaClO4, mean from 3 assays) | Ki (pH 7.5)
1 | NS(=O)(=O)O [H2NSO3H, sulphamic acid] | 0.39 mM | 
2 | O=NO [NO2^–, nitrite] |  | 63 mM
3 | CCN(CC)C(=S)S [Et2NCS2^–, N,N-diethyldithiocarbamate] |  | 3.1 mM

From paper PMC11163988, “Cloning, expression, and purification of an α-carbonic anhydrase from Toxoplasma gondii to unveil its kinetic parameters and anion inhibition profile” (Journal of Enzyme Inhibition and Medicinal Chemistry, 2024)
